Laboratory results: US20120009674A1, “Use of a GSK-3 Inhibitor to Maintain Potency of Cultured Cells” (ABT Holding Company, priority 2005, published 2012)

Tests used:
[1] = test system: Oct-3A; conditions: FIG. 4
[2] = test system: Xenopus embryos; conditions: developing Xenopus embryos; cited from earlier work

In the case of `O=C1Nc2cc(Br)ccc2/C1=C1/Nc2ccccc2/C1=N\O` [BIO, 6-bromoindirubin-3′-oxime], the “active amount of functional Oct-3A compared to MAPCs grown without BIO” value [1] is listed as 3 times and the “activity in developmental assays” value [2] is listed as “mimicked Wnt signaling”.
